{
  "source": "patent US5808139A",
  "about": "(Ligand Pharmaceuticals Incorporated, priority 1994, dated 1998)",
  "origin": "cited, not measured here",
  "target": "T1, human progesterone receptor (Homo sapiens, UniProt P06401)",
  "T1 sequence (P06401 1-933)": "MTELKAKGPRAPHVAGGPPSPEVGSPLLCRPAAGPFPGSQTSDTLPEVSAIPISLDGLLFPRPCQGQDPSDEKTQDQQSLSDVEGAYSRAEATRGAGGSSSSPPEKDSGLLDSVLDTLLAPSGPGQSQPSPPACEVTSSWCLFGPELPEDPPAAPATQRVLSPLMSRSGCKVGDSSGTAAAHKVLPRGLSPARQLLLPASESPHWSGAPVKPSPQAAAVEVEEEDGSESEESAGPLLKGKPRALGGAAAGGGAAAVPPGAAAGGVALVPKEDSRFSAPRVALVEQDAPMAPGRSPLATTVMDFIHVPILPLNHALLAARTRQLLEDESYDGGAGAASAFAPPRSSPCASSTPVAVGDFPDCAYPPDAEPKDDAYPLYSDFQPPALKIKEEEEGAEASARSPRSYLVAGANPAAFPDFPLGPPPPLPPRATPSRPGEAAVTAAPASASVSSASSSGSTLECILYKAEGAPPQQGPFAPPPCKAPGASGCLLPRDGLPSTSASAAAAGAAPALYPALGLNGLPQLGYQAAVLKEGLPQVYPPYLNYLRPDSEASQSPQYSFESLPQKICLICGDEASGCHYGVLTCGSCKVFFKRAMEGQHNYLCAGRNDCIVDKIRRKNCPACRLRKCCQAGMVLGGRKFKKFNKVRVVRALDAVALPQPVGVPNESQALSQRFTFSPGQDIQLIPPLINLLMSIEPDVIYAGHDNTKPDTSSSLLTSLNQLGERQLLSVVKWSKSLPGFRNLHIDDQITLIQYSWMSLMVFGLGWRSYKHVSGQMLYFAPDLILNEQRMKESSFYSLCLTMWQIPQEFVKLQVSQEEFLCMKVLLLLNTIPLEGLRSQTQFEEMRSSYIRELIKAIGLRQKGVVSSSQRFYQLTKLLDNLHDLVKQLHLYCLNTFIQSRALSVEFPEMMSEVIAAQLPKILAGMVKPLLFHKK",
  "parameters": "expressed in transfected cells; host or cells: CV-1 cells (calcium phosphate transfection), whole cell extract",
  "conditions": "general statement on antagonists; cited from earlier work",
  "data": [
    {"molecule": "CC#C[C@]1(O)CC[C@H]2[C@@H]3CCC4=CC(=O)CCC4=C3[C@@H](c3ccc(N(C)C)cc3)C[C@@]21C", "note": "[RU-486, reference compound]", "values": [
      {"measurement": "Specific binding of progesterone to its ligand binding site", "result": "can increase the specific binding of progesterone"}
    ]}
  ]
}
